The text below walks through data of PubChem BioAssay AID1471 (National Center for Advancing Translational Sciences (NCATS), 2008).

The structures appear in SMILES notation. The list shows a part of the results, in another mix than the full data. Some salts and complexes are drawn in separate pieces, as the source files them; their charges need not balance. Calls of active or inactive are those of the source. Calls come from the whole dose curve; as a rule, active = well fitted activation curve with a large enough effect; inconclusive = small, poorly fitted or top-dose-only effect; inactive = no such curve, though single readings can be large or run the other way.

The assay is described as follows: qHTS Multiplex Assay to Identify Dual Action Probes in a Cell Model of Huntington: Cytoprotection (ATP).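 Note: toxic huntingtin expression switched on by the ecdysone agonist tebufenozide; % of control where 0% means no effect; nearly all actives have a fitted effect of over 45% in size.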 The note with it: PC12 HTT-Q103 induced, ATP luminescence, 40 h; at 56.4 µM unless noted. The source says:
NIH Chemical Genomics Center [NCGC]
NIH Molecular Libraries Probe Production centers Network [MLPCN]
Assay Submitter (PI): Wei Zheng
Huntington's disease is a neurodegenerative disorder caused by a trinucleotide repeat expansion in Exon 1 of the Huntingtin gene. The CAG trinucleotide encodes glutamine and polyglutamine expansions cause cell death in selective areas of the brain. Huntington polyglutamine repeats have the tendency to form aggregates which are observable in later stages of the disease. The exact nature of the aggregates, whether toxic, protective, or insignificant, is unclear.
A stable PC12 cell line containing a gene fusion of Exon 1 of the Huntingtin gene linked to GFP under the control of the inducible ecdysone promoter were used as the cell-based model of Huntington Disease for high throughput screening. Exon 1 of the Huntingtin gene contained an expansion of 103 polyglutamines (Q103) which, when expressed, caused cell death and distinct, bright GFP aggregates. The amount of cell death and the size and intensity of GFP aggregates increased over time and induction level. The cell death were quantified with a measurement of ATP content in the cells. A maximal 40-50% of cell death was observed when the Huntington gene was induced in this cell line.
We optimized this assay in a homogeneous 1536 well format. A quantitative high throughput screen (qHTS) was conducted on the PC12 cells which were induced to express the toxic fusion construct. Small molecules which prevented cell death were identified by using a luminescent ATP quantification method (Perkin Elmer's ATPlite).
PC12 cells stably containing a construct with an ecdysone inducible promoter expressing GFP fused to the exon 1 of HTTQ103 (Huntington protein which containing a 103 ployglutamine expansion) were used.
NCGC Assay Protocol Summary:
Sequence, Parameter, Description
1, Reagent, 5 uL 1500 cells/well 1536 TC treated White clear bottom plate
2, Compound, 23 nL Tebufenozide inducer (100 nM final) to all columns
3, Compound, 23 nL 40 uM to 0.5 nM Libraries
5, Reagent, 5 ul ATPLite cell death assay reagent
6, Detector, 4 sec integration with a Viewlux Luminescent
Media consisted of phenol red free DMEM + 5% equine serum (Hyclone # SH30072.03 ), 5% supplemented Bovine Calf Serum (Hyclone # SH30074.03 ), 1x pen/strep, no G418
Control columns: 1 = DMSO, 2= 2 uM teb dilns (1:1), 4 = 100 nM Teb inducer. Sample columns received 100 nM Teb.
(In general: Quantitative high-throughput screening tests each substance at several concentrations.)
Consider `c1ccc(CN2CCC(Nc3ccccc3)CC2)cc1`, for which the cytoprotection (ATP increase) was inactive: -9.66%. On to `ClCCOP(OCCCl)OCCCl`, for which the cytoprotection (ATP increase) was inactive: -46.9%. For `CCOC(=O)C(CC)C1=NC(C)(C)Cc2ccccc21.O=[N+]([O-])c1cc([N+](=O)[O-])c(O)c([N+](=O)[O-])c1` (stereo unspecified), the cytoprotection (ATP increase) is inactive: 6.37% [at 10 µM]. The value for `N#Cc1ccc(C(=O)NCC2(N3CCCCC3)CCCCC2)cc1` was inactive: -22.8%; that for `O=C(O)c1cccc(Nc2c([N+](=O)[O-])cc([N+](=O)[O-])cc2[N+](=O)[O-])c1` was inactive: -0.961% [at 10 µM]; that for `N/C(=N\O)c1c(N)no[n+]1[O-]` was inactive: -18.8% [at 0.074 µM]. With `COc1ccc(C(=O)NCC2(N3CCOCC3)CCCCC2)cc1OC` the figure was inactive: 0.641%. For the compound `CCCOc1ccc(C)cc1CN(CCCl)CCCl`, the cytoprotection (ATP increase) was inactive: 13.2% [at 10 µM]. The value for `CCC(CO)(C(=O)OC1CN2CCC1CC2)c1ccccc1` (stereo unspecified) was inactive: -4.62%; that for `COc1cc(OC)cc(C(=O)NCC2(N3CCOCC3)CCCCC2)c1` was inactive: -3.58%; that for `O=C(O)C1(Nc2ccccc2)CCN(Cc2ccccc2)CC1` was inactive: 10.8% [at 10 µM].

In the case of `CC(C)(C)OC(=O)N1CCC(Nc2ccccc2)CC1`, the cytoprotection (ATP increase) was inactive: -25.4%. `CCOc1ncccc1C(=O)NCC1(N2CCOCC2)CCCCC1`: the cytoprotection (ATP increase) was inactive: 8.22%.

Regarding `CN(C)c1ccc(C(=O)NCC2(N3CCCCC3)CCCCC2)cc1`, the cytoprotection (ATP increase) was inactive: -9.46%. With `Fc1ccccc1NC1CCN(Cc2ccccc2)CC1` the figure was inactive: -4.02%; with `Cc1ccc(OCC(C)C)c(CN(CCCl)CCCl)c1`, inactive: 5.94% [at 10 µM]; with `COc1ccc(NC2CCN(CCc3ccccc3)CC2)c(OC)c1`, inactive: -21.7%. On to `CCOc1ccc(C)cc1CN(CCCl)CCCl`, for which the cytoprotection (ATP increase) was inactive: 6.75% [at 10 µM].

Take `CCOC(=O)N1CCC(Nc2ccc(OC)cc2)CC1`: the cytoprotection (ATP increase) was inactive: -0.0835% [at 10 µM]. For the compound `O=C(OC1CN2CCC1CC2)C1c2ccccc2Oc2ccccc21` (stereo unspecified), the cytoprotection (ATP increase) was inactive: -30.9%. The value for `N#CC1(Nc2ccccc2)CCN(Cc2ccccc2)CC1` was inactive: -20.8% [at 10 µM]. `O=C(NCC1(N2CCOCC2)CCCCC1)c1cc2ccccc2o1`: the cytoprotection (ATP increase) was inactive: 4.45%. The value for `COc1ccc(C(=O)NCC2(N3CCCCC3)CCCCC2)c(OC)c1OC` was inactive: -2.02%; that for `NC1CCCCC1.NP(=O)(O)N(CCCl)CCCl` was inactive: 1.96% [at 10 µM]; that for `COc1ccc2c(c1O)-c1c(O)c(OC)cc3c1[C@H](C2)[N+](C)(C)CC3.O=[N+]([O-])c1cc([N+](=O)[O-])c([O-])c([N+](=O)[O-])c1[O-]` was inactive: 5.14% [at 10 µM].

As to `O=C(OC1CN2CCC1CC2)c1ccc([N+](=O)[O-])cc1` (stereo unspecified), the cytoprotection (ATP increase) is inactive: -16.1% [at 10 µM]. With `CCOP(=O)(Cl)Cl` the figure was inactive: -77.1%; with `CN(C)c1cccc(C(=O)NCC2(N3CCCCC3)CCCCC2)c1`, inactive: -29.3%. Take `COc1ccc(CN(CCCl)CCCl)cc1Cl`: the cytoprotection (ATP increase) is inactive: 15.4% [at 10 µM]. Turning to `CC(C)c1ccc(NC2CCN(C(=O)OC(C)(C)C)CC2)cc1`, the cytoprotection (ATP increase) was inactive: 12.5% [at 10 µM].

Turning to `CN1CCN(CCOC(=O)C(O)(c2ccccc2)c2ccccc2)CC1`, the cytoprotection (ATP increase) was inactive: 2.65% [at 0.074 µM]. The value for `COc1ccc(NC2CCN(C(=O)OC(C)(C)C)CC2)cc1` was inactive: -41.7%; that for `O=C(NCC1(N2CCOCC2)CCCCC1)c1cc(=O)[nH]c2ccccc12` was inactive: 16.3%; that for `O=[N+]([O-])c1cc([N+](=O)[O-])c(NCC2CCS(=O)(=O)C2)c([N+](=O)[O-])c1` (stereo unspecified) was inactive: -193%.

Turning to `O=C(NCC1(N2CCCCC2)CCCCC1)c1cccc([N+](=O)[O-])c1`, the cytoprotection (ATP increase) was inactive: -30.2%.

Consider `N#CC1(Nc2ccccc2)CCN(CCc2ccccc2)CC1`, for which the cytoprotection (ATP increase) is inactive: 21.1%.
